# Measured values: paper PMC7834738 (Molecular Therapy, 2020)
# Several values for one entry are separate records, joined by “and”; a condition that tells them apart may be missing. Equal values may be shown once.
# Tested on: SARS-CoV-2 (USA_WA1/2020)
# Type: cell-based
structure (smiles),measurement,value
CC(=O)Oc1ccccc1C(=O)Nc1ncc([N+](=O)[O-])s1 [Nitazoxanide],concentration at which synergy with remdesivir was observed,> 1.25 μM and > 0.383 mg/L
